Literature values in paper PMC9037210, “Novel 3-(6-methylpyridin-2-yl)coumarin-based chalcones as selective inhibitors of cancer-related carbonic anhydrases IX and XII endowed with anti-proliferative activity” (Journal of Enzyme Inhibition and Medicinal Chemistry, 2022).
pKi: −log10 of the molar value.

Target: T1, hCA II (Homo sapiens, UniProt P00918)
T1 construct: made in house
Conditions: Figure 1; read-out: hCA II inhibition; cited from earlier work

O=Cc1ccccc1OCc1cn(CCCOc2ccc3ccc(=O)oc3c2)nn1 [V]
pKi: < 5.00
